Compounds with a hit are over-represented: about 16% of the library has one in this group of screens.
TDP1 inh: inhibitors of human tyrosyl-DNA phosphodiesterase TDP1; Q9NUW8; recombinant TDP1, AlphaScreen DNA substrate cleavage; Potency, µM (series often up to 130 µM), most hits filed as inhibitors; actives 0.28% (n = 350,000); also: nearly all actives have a fitted effect of over 40% in size
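Enzyme-compound mixtures sat 15 min at room temperature, followed by a 5 min reaction with 15 nM final substrate and 10 min with AlphaScreen beads. Recombinant human Tdp1 was used at 1 nM final.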
DT40 TDP1 CPT: growth inhibition of DT40 Tdp1-/-;hTDP1 cells with camptothecin (screen for TDP1 inhibitors) | chicken DT40 Tdp1-/-;hTDP1 cells + 20 nM CPT, ATP luminescence, 48 h | Potency, µM (doses to about 46.2 µM), most hits filed as inhibitors | actives 12% (n = 420,000); also: nearly all actives have a fitted effect of over 55% in size
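Cell growth measured by CellTiter-Glo luminescence after a minimum 48 h, 37 C compound exposure with 20 nM CPT in Tdp1-knockout DT40 cells stably expressing hTDP1, seeded 400/well; qHTS titration format.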
uPA generation: blocks generation of uPA at the cell surface; AID 540303; cell surface uPA generation assay, qHTS; Potency, µM (top dose mostly 38.3 µM), hits mostly inhibitors; actives 0.31% (n = 330,000); active = well fitted inhibition curve with a large enough effect; inconclusive = small, poorly fitted or top-dose-only effect; inactive = no such curve, though single readings can be large or run the other way; tested in mouse RAW 264.7 cells; also: nearly all actives have a fitted effect of over 55% in size
miR-21 FLuc: raises the signal of a miR-21 reporter; HeLa miR-21 FLuc reporter, luciferase, 48 h; Potency, µM (top dose mostly 38.3 µM); AID 2288; 340,000 tested, under 10 active; active = well fitted rising curve with a large enough effect; inconclusive = small, poorly fitted or top-dose-only effect; inactive = no such curve, though single readings can be large or run the other way;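 note: miR-21 action dims this reporter so a rising signal means less miR-21 action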
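HeLa cells stably expressing CMV-driven firefly luciferase with a downstream miR-21 binding sequence, endogenously expressing miR-21, were treated with titrations (up to about 40uM final) for 48 hours at 37 degree Celsius. Luciferase luminescence was read after lysis.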
TDP1 cell noCPT: qHTS for Inhibitors of human tyrosyl-DNA phosphodiesterase 1 (TDP1): qHTS in cells in absence of CPT. DT40 Tdp1-/- hTDP1 cells, no CPT, ATP luminescence, 48 h. actives 15% (n = 420,000). Potency, µM (highest dose often 46.2 µM), usual class: inhibitors; also: nearly all actives have a fitted effect of over 55% in size
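Luminescent ATP content (CellTiter-Glo) served as the growth readout. Knockout chicken DT40 cells expressing human TDP1 were exposed to compounds without camptothecin for a minimum 48 hr at 37 °C.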
Numbers stand for hits; 0 = inactive; ? = inconclusive; - = no result given; [ ] = remark or other dose. Unless noted, calls follow the shape of the dose curve; as a rule, active = well fitted curve in the direction sought with a large enough effect; inconclusive = small, poorly fitted or top-dose-only effect, or another doubt; inactive = no such curve, though single readings can be large; an effect the other way counts as inactive or inconclusive.

SMILES | TDP1 inh | DT40 TDP1 CPT | uPA generation | miR-21 FLuc | TDP1 cell noCPT
CCC(C)NC(=O)CCCn1c(=O)c2cccn2c2ccccc21 (centres undefined) | 0 | 0 | - | 0 | 0
CCn1c(C)cc(O)cc1=O | 0 | 0 | 0 | 0 | 0
CCC(=O)/C=C1/Sc2ccccc2N1CC | 0 | ? | 0 | 0 | ?
CCN1/C(=C/c2sc(-c3ccccc3C)c[n+]2C)Sc2ccccc21 | 0 | 0.259µM | - | ? | 0.206µM
COc1ccc(/C=C2/SC(=S)N(CCC(=O)Nc3cccnc3)C2=O)cc1OC | - | 0 | - | - | 0
COc1cc(O)c2c(c1)OC(c1ccc(O)cc1)CC2=O (centres undefined) | - | ? | 0 | 0 | 16.4µM
COc1cc(O)c2c(c1)O[C@H](c1ccccc1)CC2=O | 0 | - | - | - | -
COc1ccc([C@@H]2CC(=O)c3c(O)cc(O)cc3O2)cc1O | 0 | ? | 0 | - | ?
COc1c(CC=C(C)C)cc(C2CC(=O)c3c(O)cc(O)cc3O2)cc1CC=C(C)C (centres undefined) | - | ? | 7.94µM | 0 | ?
COC1=CC(=O)C(C2CC(=O)c3c(O)cc(O)cc3O2)=CC1=O (centres undefined) | - | 3.66µM | 0 | - | 2.59µM
CC(C)=CCc1c(O)c(CC=C(C)C)c2c(c1O)C(=O)CC(c1ccc(O)cc1)O2 (centres undefined) | 0 | ? | 0 | 0 | 18.4µM
O=C(NC1CCCN(c2ccc(C(F)(F)F)cn2)C1)c1ccncc1 (centres undefined) | 0 | 0 | 0 | 0 | 0
CCC(C)[C@H](N)c1nnc(SCC(=O)Nc2cccc(Cl)c2)o1 (some centres undefined) | 0 | 0 | - | 0 | 0
Cc1ccc(S(=O)(=O)N2CCC(C(=O)NN3CCCCC3)CC2)cc1 | 0 | 0 | 0 | - | 0
COc1ccc(C2=C(C)C(=NCCCN3CCN(c4cc(Cl)ccc4C)CC3)NS2(=O)=O)cc1 | 0 | 6.51µM | - | 0 | 8.2µM
CC1=C(c2ccc(C)cc2)S(=O)(=O)NC1=NCCCN1CCN(c2ccc(F)cc2)CC1 | 0 | 14.6µM | - | 0 | 14.6µM
COc1ccc(C2(N3CCN(c4cc(C)ccc4C)CC3)C(=O)c3ccccc3C2=O)cc1 | 0[12.3 µM] | ? | - | 0 | ?
CC1=C(c2ccc(C(C)C)cc2)S(=O)(=O)NC1=NCCCN1CCN(c2ccccc2F)CC1 | 0 | ? | - | 0 | ?
CC1=C(c2ccc(Cl)cc2)S(=O)(=O)NC1=NCCCN1CCN(c2cc(C)ccc2C)CC1 | 0 | 2.59µM | - | 0 | 5.17µM
COc1ccc(N2CCN(C(=O)CN=C3NS(=O)(=O)C(c4ccc(C)cc4)=C3C)CC2)cc1 | 0 | 0 | 0 | 0 | 0
COc1ccc(C2=C(N3CCN(c4cc(Cl)ccc4C)CC3)c3ccccc3C2=O)cc1 | 0 | 20.6µM | - | 0 | ?
COC(=O)C1=C(C(=O)OC)[C@@H]2Nc3ccccc3[C@@]23C[C@@H](C(=O)OC)N(S(=O)(=O)c2cccs2)C3=N1 | 0[21 µM] | - | - | - | -
CC1(C(=O)NC2CCCC2)CCC(=O)N1Cc1ccccc1 (centres undefined) | 0 | 0 | 0 | 0 | 0
Cn1cc(C(=O)C(=O)NC2CC2)c2ccccc21 | - | 0 | 0 | - | 0
CSc1nc(N)nc2c1ncn2C1OC(CO)CC1O (centres undefined) | - | ? | 0 | - | ?
SMILES | TDP1 inh | DT40 TDP1 CPT | uPA generation | miR-21 FLuc | TDP1 cell noCPT
CC(O)c1cccc(NC(=O)Nc2cccc(NC(=O)Nc3cccc(C(C)O)c3)c2)c1 (centres undefined) | - | 0 | 0 | 0 | 0
COc1cccc(CNC(=O)C2CCCN(c3nn4c(=O)cc(C)nc4s3)C2)c1 (centres undefined) | 0 | 0 | 0 | 0 | 0
CCc1ccc(NC(=O)C2CCCN(c3nn4cc(-c5ccc(OC)cc5)nc4s3)C2)cc1 (centres undefined) | 0 | ? | - | 0 | 13µM
COc1cccc(CNC(=O)C2CCCN(c3nn4cc(-c5ccc(C)cc5)nc4s3)C2)c1 (centres undefined) | 0 | 20.6µM | - | 0 | 14.6µM
O=C(NCc1cccc(F)c1)C1CCN(c2nn3cc(-c4ccc(F)cc4)nc3s2)CC1 | 0 | 0 | - | 0 | ?
CCc1ccc(CNC(=O)C2CCCN(c3nn4cc(-c5ccc(F)cc5)nc4s3)C2)cc1 (centres undefined) | 0 | 16.4µM | - | 0 | 16.4µM
CCOCCCNC(=O)C1CCN(c2nn3cc(-c4ccc(F)cc4)nc3s2)CC1 | 0 | 20.6µM | - | 0 | 14.6µM
COc1cc(C(=O)N/N=C/c2ccc(OC(=O)c3ccccc3Cl)cc2)ccc1O | 0 | 0 | 0 | 0 | ?
COCCCNC(=O)c1cc(-c2cccnc2)nc2ccc(S(=O)(=O)N3CCC(C)CC3)cc12 | 0 | 0 | - | 0 | 0
Cc1cc(C)c(C(=O)C(C)OC(=O)c2ccccn2)cc1C (centres undefined) | 0 | 0 | 0 | 0 | 0
Cn1cccc1Cc1nnc(SCC(=O)Nc2ccc3c(c2)OCCO3)n1CCc1ccccc1 | 0 | ? | 0 | 0 | ?
COc1ccc(-c2cn3nc(N4CCCC(C(=O)NCc5ccc(Cl)cc5)C4)sc3n2)cc1 (centres undefined) | 0 | 9.2µM | - | 0 | 8.2µM
CCOc1ccc(CNC(=O)C2CCCN(c3nn4cc(-c5ccc(F)cc5)nc4s3)C2)cc1 (centres undefined) | 0 | 20.6µM | - | 0 | 23.1µM
CCOc1ccc(CNC(=O)C2CCCN(c3nn4cc(-c5ccc(OC)cc5)nc4s3)C2)cc1 (centres undefined) | 0 | 16.4µM | - | 0 | 18.4µM
COc1ccc(-c2cn3nc(N4CCCC(C(=O)Nc5cc(Cl)ccc5OC)C4)sc3n2)cc1 (centres undefined) | 0 | ? | - | 0 | ?
COCCCNC(=O)C1CCCN(c2nn3cc(-c4ccc(C)cc4)nc3s2)C1 (centres undefined) | 0 | ? | - | ? | ?
COc1ccc(-c2cn3nc(N4CCCC(C(=O)Nc5ccccc5OC)C4)sc3n2)cc1 (centres undefined) | 0 | 14.6µM | - | 0 | 16.4µM
Cc1cc2c(cc1S(=O)(=O)Nc1c(C)cccc1C)n(C)c(=O)c(=O)n2C | - | 0 | 0 | 0 | 0
CC(C)CNC(=O)NC(=O)COC(=O)Cn1cnc2ccccc2c1=O | 0 | ? | 0 | 0 | 0
Cc1ccc(NC(=O)N2CCCC2C(=O)NCc2ccccc2Cl)cc1 (centres undefined) | 0 | 0 | 0 | 0 | 0
Cc1ccc(C(=O)NC2CCS(=O)(=O)C2)cc1S(=O)(=O)N1CCCCC1 (centres undefined) | 0 | 0 | 0 | 0 | 0
Cc1cc(C)c(S(=O)(=O)Nc2ccc(Cl)cn2)c(C)c1 | - | 0 | 0 | 0 | 0
CCCSCCCNC(=O)C1CCCN(c2nn3cc(-c4ccc(OC)cc4)nc3s2)C1 (centres undefined) | 0 | 20.6µM | - | 0 | 13µM
Cc1c(C)n2c(SCC(=O)N3CC(C)OC(C)C3)nnc2[nH]c1=O (centres undefined) | - | 0 | 0 | - | 0

Screening data as filed in PubChem.
